This test deals with T1, brain acetylcholinesterase (AChE) (Rattus norvegicus, UniProt P37136).
T1 construct: corpora striata dissected free, weighed and homogenized in 19 volumes; from tissue; host or cells: corpora striata of male Wistar rats, whole homogenate
T1 sequence (P37136 32-614): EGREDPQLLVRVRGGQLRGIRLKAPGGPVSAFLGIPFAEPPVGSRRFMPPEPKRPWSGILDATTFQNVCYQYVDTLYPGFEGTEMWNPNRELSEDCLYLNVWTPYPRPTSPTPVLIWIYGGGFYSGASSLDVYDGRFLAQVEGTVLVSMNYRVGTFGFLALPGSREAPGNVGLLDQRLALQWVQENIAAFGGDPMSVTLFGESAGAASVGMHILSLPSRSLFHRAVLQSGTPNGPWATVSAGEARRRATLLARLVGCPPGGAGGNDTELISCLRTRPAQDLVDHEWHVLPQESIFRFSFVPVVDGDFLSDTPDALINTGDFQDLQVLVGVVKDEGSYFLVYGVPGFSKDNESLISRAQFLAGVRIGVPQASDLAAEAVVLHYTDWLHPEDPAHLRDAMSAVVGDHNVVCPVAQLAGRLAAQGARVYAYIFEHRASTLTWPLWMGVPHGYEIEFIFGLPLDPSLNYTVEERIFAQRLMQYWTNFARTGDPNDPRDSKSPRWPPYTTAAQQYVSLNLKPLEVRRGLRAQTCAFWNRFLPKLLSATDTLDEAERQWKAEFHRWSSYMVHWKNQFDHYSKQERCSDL
Kind of test: In Vitro Inhibition of Acetylcholinesterase Activity in Rat Striatum. Format: biochemical, rat (male Wistar). As to conditions: rat striatum homogenate, 10 min preincubation, pH 7.2, read-out: Inhibition of Brain Acetycholinesterase Activity, Inhibitory Concentration. From the text: Cholinesterases are found throughout the body, both in the brain and in serum. However, only brain acetylcholinesterase (AChE) distribution is correlated with central cholinergic innervation. […] We have determined in vitro inhibition of acetylcholinesterase activity in rat striatum according to the method described below.
The method described below was used in this invention for assaying anticholinesterase activity.
1. 0.05M Phosphate buffer, pH 7.2
(c) add (a) to (b) until pH reaches 7.2
(a) 9.9 mg 5,5-dithiobisnitrobenzoic acid (DTNB) (0.25 mM)
(b) 99 mg s-acetylthiocholine chloride (5 mM)
(c) q.s. to 100 ml with 0.05M phosphate buffer, pH 7.2 (reagent 1)
Male Wistar rats are decapitated, brains rapidly removed, corpora striata dissected free, weighed and homogenized in 19 volumes (approximately 7 mg protein/ml) of 0.05M phosphate buffer, pH 7.2 using a Potter-Elvehjem homogenizer. […]
Using the indicated instrument settings the ABA-100 automatically reads the color reaction and prints out the results in enzyme units after 15 minutes.
2. The enzyme activity can also be measured with a Gilford 250 spectrophotometer. […]
The uninhibited activity of the enzyme (tissue homogenate) is first determined. […] The reaction rate is determined by the slope of the recorded absorbance change. The actual rate (moles/liter/min) can be calculated as described in the following formula

Turning to “[2S-[2b,6b]] and [2R-[2a,6a]]-1,2,3,4,5,6-Hexahydro-2,6-methano-1,3-benzodiazocin-8-ol, S-α-methylbenzylcarbamate salicylate”, the IC50 is 8.7 µM.

These data come from patent US5010083A, “2,6-methano-1,3-benzodiazocine compounds which have useful pharmaceutical utility” (priority 1989, dated 1991).
